Ab-14 light chain CDR variants: yeast mating affinities

Source: Li et al. 2023 (doi:10.1038/s41467-023-39022-2), MIT Lincoln Laboratory and A-Alpha Bio; data file from the FLAb repository.

The target is the same throughout: PDVDLGDISGINAS, from the HR2 region of SARS-CoV-2 spike.

Parent: Ab-14, a human scFv built as VH, a (GGGGS)3 linker, VL. Only the CDRs of the light chain vary.
VH: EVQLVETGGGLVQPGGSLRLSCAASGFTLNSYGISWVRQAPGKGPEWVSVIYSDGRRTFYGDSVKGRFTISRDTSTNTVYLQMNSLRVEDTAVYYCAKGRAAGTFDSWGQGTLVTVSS
VL: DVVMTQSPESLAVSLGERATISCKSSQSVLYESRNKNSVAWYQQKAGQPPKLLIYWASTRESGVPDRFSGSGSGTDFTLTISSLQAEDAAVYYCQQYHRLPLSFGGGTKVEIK

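Phage display of a naive human antibody library on the peptide gave the parent. This is the validation round: designs drawn from the data on random variants, tested in the same kind of assay. Group labels follow the data file (Ctrl: baseline library sampled from a position-specific scoring matrix, with some repeated check sequences; En: ensemble of fine-tuned language models; GP: Gaussian process model; HC: hill climbing; Gen: genetic algorithm; Gibbs: Gibbs sampling; a sequence that several methods proposed may carry one label only). The assay is AlphaSeq: two haploid yeast populations carry antibody and antigen on their surface. Pairs that bind mate more often; barcode pairs of the diploids are counted by sequencing. Scores were corrected for input abundance and mapped to Kd with protein pairs of known affinity run in the same pool. Mating was done six times.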

Variants are written as CDR1, CDR2 and CDR3 of the light chain (limits as in the source). Parent: KSSQSVLYESRNKNSVA, WASTRES, QQYHRLPLS.
Scale: log10 of Kd in nM, estimated from mating counts; low values are strong binders.
Replicates are averaged; those with no signal do not enter the mean.
"nd" means that the variant was in the library but no mating with the target was seen in that replicate; the authors take this as a sign of poor binding, and no number exists.
Of ten entries with the parent sequence, four were seen in most replicates (averages 0.34 to 2.37), three in one and three in none, so single entries are noisy.
A sequence measured in both rounds can read differently, since the two assays cover different ranges.
The authors' rule: three or more of the six replicates give a measured affinity, fewer mean a poor binder.
As a blank, each scFv also met three strains without target: over all light chain designs, 4% of these pairings were detected, typically at 2.64 and seldom below 1.59. The control count says in how many pairings with the empty strains this scFv gave a signal.

Result 1.65, 0.90, 1.41, 1.75, 1.51, 1.24 (mean 1.41; controls 1 of 18), variant KLSWDDMSHFNTRSAIA / DMTMRAW / QQYNRLPLD [En_Gibbs].
Result 0.12, 0.11, -0.13, -0.24, -0.04, -0.04 (mean -0.04; controls 0 of 18), variant HLSNSVLYESRNKNSVA / NASTRES / QQYHRLPLN [GP_HC].
Result 1.22, 0.87, 0.79, 0.46, 0.33, 1.03 (mean 0.78; controls 1 of 18), variant KVSQSNLGESRMKQSVA / HASQRES / QQYHRLPLS [GP_Gibbs].
Result 0.93, 0.86, 0.74, 1.07, 0.88, 0.88 (mean 0.89; controls 1 of 18), variant HMSMLTLGGLKNRNSVA / QMTTREN / QQYDRLPLS [En_Gen].
Result 0.69, 0.70, 0.41, 0.58, 0.49, 0.87 (mean 0.62; controls 2 of 18), variant TISQVMNTLTRQGNNVA / DLQNREN / QQYFRLPLS [En_Gen].
Result -0.03, -0.15, 0.01, -0.18, -0.07, -0.08 (mean -0.08; controls 1 of 18), variant SIRQVTCDNQRTHSNIA / DATQIEP / QQYSRLPLS [En_Gibbs].
Result 0.40, 0.16, 0.22, 0.26, 0.34, 0.04 (mean 0.23; controls 1 of 18), variant HITYGMQVAGRHSKSIA / QAETREK / QQYDRLPLA [En_Gen].
Result 0.50, 0.21, 0.59, 0.79, 0.69, 1.23 (mean 0.67; controls 3 of 18), variant KISQMIRVGSTASNSIA / EEVTRAK / QQYHRLPLA [En_Gen].
Result 0.79, 0.83, 0.83, 0.85, 1.01, 1.25 (mean 0.92; controls 2 of 18), variant TLYGLTNSMSKSKDNVA / EMSTREA / QQYDRLPLM [En_Gen].
Result 1.77, 2.17, 1.83, 1.71, 1.65, 2.07 (mean 1.87; controls 1 of 18), variant KLSNSWLYESRNSNSVA / HASKRMS / QQYHRLPLS [GP_Gibbs].
Result 1.49, 3.53, 1.45, 1.37, 1.01, 1.24 (mean 1.68; controls 0 of 18), variant KLRMSTAYLSENKNSVA / ELTTRGS / QQYFRLPLS [En_HC].
Result 0.80, 0.33, 1.17, 0.15, -0.04, 0.46 (mean 0.48; controls 0 of 18), variant TLGDVTRMESNKKSSIA / DMSNRAS / QQYHRLPIS [En_HC].
Result -0.12, -0.45, -0.18, -0.40, -0.31, -0.12 (mean -0.26; controls 0 of 18), variant KLSQSVLYESRNANNVA / NASQRES / QQYHRLPLS [GP_Gen].
Result 0.17, 0.23, 0.13, 0.09, 0.42, 0.24 (mean 0.21; controls 0 of 18), variant KVSQSVVYEGRNKNSVA / DASTRED / QQYHRLPLS [GP_HC].
Result 0.91, 0.84, 0.95, 1.37, 0.96, 1.90 (mean 1.15; controls 0 of 18), variant YMSMYLDMQDDIQCGVA / DANVRNA / QQYQRLPLS [En_Gibbs].
Result 1.34, 1.45, 1.02, 1.56, 2.19, 1.08 (mean 1.44; controls 0 of 18), variant KSSESVLFESRNKNSVA / NASTRES / QQYHRLPLR [GP_HC].
Result -0.12, -0.41, -0.53, -0.48, -0.71, -0.41 (mean -0.44; controls 0 of 18), variant KVSQSHLYESRNKNQVA / DASTRES / QQYHRLPLS [GP_Gen].
Result 0.49, 0.02, 0.37, -0.15, 0.01, 0.47 (mean 0.20; controls 0 of 18), variant KLSQSGLYEMRNTNSVA / QASQRLQ / QQYHRLPLS [GP_Gibbs].
Result 1.07, 2.28, 1.15, 1.16, 2.18, 1.49 (mean 1.55; controls 2 of 18), variant NFSQMVLTGSTLRNSVA / HATTREE / QQYHRLPLI [En_HC].
Result 1.79, 1.01, 0.89, 1.40, 1.25, 1.05 (mean 1.23; controls 0 of 18), variant MMDNCQEGYYQQNNNVA / EMNARML / QQYGRLPLM [En_Gibbs].
Result 1.59, 1.08, 0.86, 0.80, 1.31, 0.88 (mean 1.09; controls 0 of 18), variant QLKTEVIDNQKLRNSIA / ENELRAM / QQYLMLPLS [En_Gibbs].
Result nd, nd, nd, nd, nd, nd (controls 0 of 18), variant KSSQSVLYESRNKNMVA / WASTRMS / QQYHRLPLS [Ctrl].
Result 0.47, 0.68, 0.52, 0.46, 0.73, 1.04 (mean 0.65; controls 1 of 18), variant KIEQSVHYEDRNINSVA / NASQRYS / QAYHRLPLS [GP_Gibbs].
Result 0.63, 0.47, 0.26, 0.12, 0.26, 0.57 (mean 0.38; controls 0 of 18), variant TLVGNIQGGGWAKKNVA / DAVMRVN / QQYYRLPLS [En_Gibbs].
Result nd, 2.10, 1.94, 2.56, nd, 1.87 (mean 2.12; controls 1 of 18), variant KSSQSVLNESRNKNSVA / WASTRSS / QQYHRLPLS [Ctrl].
Result 0.17, 0.01, -0.05, 0.04, -0.02, 0.16 (mean 0.05; controls 1 of 18), variant KVLQSVVYEGRNKNSVA / DASTRED / QQYHRLPLS [GP_HC].
Result 0.15, 0.53, 0.84, 0.60, 0.52, 0.61 (mean 0.54; controls 1 of 18), variant NMSDSTEKMASIERNIA / DETTRAM / QQYYRLPLS [En_Gibbs].
Result 0.65, 0.77, 0.75, 0.96, 0.93, 1.44 (mean 0.92; controls 2 of 18), variant MITAAMNAYGGSRSNVA / DKAISVN / QQYHHLPLS [En_Gibbs].
Result 0.72, 0.58, 0.74, 0.66, 0.66, 0.91 (mean 0.71; controls 2 of 18), variant KLRQSTLYESRNKNEVA / QASTRES / QQYHRLPLS [GP_HC].
Result nd, nd, nd, 1.84, nd, nd (controls 0 of 18), variant KISQSVLYESRNKNSIA / WASTRES / QCYHRLPLS [Ctrl].
Result 0.20, -0.16, -0.16, -0.20, -0.14, 0.03 (mean -0.07; controls 2 of 18), variant KLQQSMDYESRNDNSVA / HASMRES / QQYHRLPLF [GP_Gibbs].
Result 0.82, 1.05, 0.85, 0.99, 0.83, 0.96 (mean 0.92; controls 0 of 18), variant KSSQSVLYYSRNKNSVA / AASVRES / QQYHRLPLS [Ctrl].
Result nd, nd, nd, nd, nd, nd (controls 0 of 18), variant HMSMLTLGGMRQKNSVA / QMTTREN / QQYDRLPLM [En_Gen].
Result 0.14, 0.07, 0.12, -0.13, -0.03, 0.12 (mean 0.05; controls 0 of 18), variant KLSQHVVYESRNKNSVA / NASTRLS / QQYHRLPLS [GP_Gibbs].
Result 0.43, 0.59, 0.77, 0.44, 0.02, 0.79 (mean 0.51; controls 1 of 18), variant KSSISYDYESRNENSVA / EASTREQ / QQYHRLPLS [GP_HC].
Result nd, nd, nd, nd, nd, nd (controls 0 of 18), variant FMEMDFDGNDVNRNSIA / SDEAVTR / QHYARLPLS [En_Gibbs].
Result -0.24, -0.18, -0.35, -0.53, -0.25, -0.20 (mean -0.29; controls 1 of 18), variant KLSQSVLYESRMKNSVA / NASTRES / QQYHRLPLS [GP_Gen].
Result -0.22, -0.25, -0.54, -0.44, -0.37, -0.04 (mean -0.31; controls 2 of 18), variant KLSQSVLYESRNKNSVA / NASTREQ / QQYHRLPLE [GP_Gen].
Result 0.54, 0.31, 0.26, 0.49, 0.92, 0.60 (mean 0.52; controls 0 of 18), variant KYSQSWLYESRNFWSVA / GASTRES / QQYHRLPLS [GP_HC].
Result nd, nd, nd, nd, 2.87, nd (controls 1 of 18), variant KVSEFPRGLMSRQDSIA / DNTTREN / QQYDRLPLS [En_Gen].
Result nd, nd, nd, nd, nd, nd (controls 0 of 18), variant MCDQDVLYESRNKNSVA / WASTRES / QQYHRLPLS [Ctrl].
Result 1.69, 0.91, 1.09, 1.35, 0.98, 1.47 (mean 1.25; controls 1 of 18), variant KSSQSVLYESRNKNSVA / NASTRVS / QAYHRLPLS [Ctrl].
Result nd, nd, nd, 1.77, 2.30, 1.97 (mean 2.01; controls 0 of 18), variant KLGQMTAIESENLNSVA / QMDTRES / QQYHRLPLS [En_HC].
Result 1.33, 1.05, 1.17, 1.32, 1.19, 1.41 (mean 1.25; controls 2 of 18), variant SLMQVPGYESNNKNSIA / DLRTRES / QQYHRLPLS [En_HC].
Result nd, nd, nd, nd, nd, nd (controls 0 of 18), variant KLSISYLFQSLEKNSIA / ENSTREK / QHYHRLPLS [En_HC].
Result nd, nd, nd, nd, nd, nd (controls 0 of 18), variant KIQWYPLENRGTIQAIA / EASTAYN / QQYMHLPLS [En_Gibbs].
Result 0.47, 0.27, 0.33, 0.33, 0.19, 0.50 (mean 0.35; controls 3 of 18), variant KFEGSWGMESRNKNSVA / NASHRMS / QQYHRLPLS [GP_Gibbs].
Result -0.16, -0.39, -0.54, -0.67, -0.38, -0.28 (mean -0.40; controls 1 of 18), variant KVSPSVLYESRNKNSVA / QASTRES / QQYHRLPLS [GP_HC].
Result 1.34, 2.51, 1.35, 1.18, 1.45, 2.60 (mean 1.74; controls 0 of 18), variant MISQIYNMGQFAINSVA / QASTRNE / QQYDRLPLM [En_Gen].
Result nd, nd, nd, nd, nd, nd (controls 1 of 18), variant KSSQSVLYASRNKNSVA / YASTRHS / QQYHRAPLS [Ctrl].
Result 2.47, 1.72, 1.82, nd, 1.48, 1.97 (mean 1.89; controls 0 of 18), variant KSSQSVLYESRYKNSVA / WASERES / QQYFRLPLS [Ctrl].
Result 1.36, 1.14, 0.96, 0.93, 1.33, 1.56 (mean 1.21; controls 0 of 18), variant KISFNTLIESKNLNSVA / EMTNREY / QDYDRLPLS [En_HC].

The last 5 entries again:

KVSPSVLYESRNKNSVA / QASTRES / QQYHRLPLS [GP_HC]: -0.16, -0.39, -0.54, -0.67, -0.38, -0.28 (mean -0.40; controls 1 of 18).
MISQIYNMGQFAINSVA / QASTRNE / QQYDRLPLM [En_Gen]: 1.34, 2.51, 1.35, 1.18, 1.45, 2.60 (mean 1.74; controls 0 of 18).
KSSQSVLYASRNKNSVA / YASTRHS / QQYHRAPLS [Ctrl]: nd, nd, nd, nd, nd, nd (controls 1 of 18).
KSSQSVLYESRYKNSVA / WASERES / QQYFRLPLS [Ctrl]: 2.47, 1.72, 1.82, nd, 1.48, 1.97 (mean 1.89; controls 0 of 18).
KISFNTLIESKNLNSVA / EMTNREY / QDYDRLPLS [En_HC]: 1.36, 1.14, 0.96, 0.93, 1.33, 1.56 (mean 1.21; controls 0 of 18).